Values quoted from earlier work in US20070238669A1, “HUMAN GLUCAGON-LIKE-PEPTIDE-1 MODULATORS AND THEIR USE IN THE TREATMENT OF DIABETES RELATED CONDITIONS” (Bristol-Myers Squibb Company, priority 2006, published 2007).

Q: With GLP-1 (7-37) as the substance, how does the serum half-life read?
A: less than five
